From paper PMC5155152, “A diverse intrinsic antibiotic resistome from a cave bacterium” (Nature Communications, 2016)

Key:
Experiment in all cases: purified protein
[1] = test system: CC(=O)SCCNC(=O)CCNC(=O)[C@H](O)C(C)(C)COP(=O)(O)OP(=O)(O)OC[C@H]1O[C@@H](n2cnc3c(N)ncnc32)[C@H](O)[C@@H]1OP(=O)(O)O; settings: 50 mM HEPES pH 7.5, 150 mM NaCl, 0.1 mM EDTA, 25 °C
[2] = test system: O=C(N[C@H](CO)[C@H](O)c1ccc([N+](=O)[O-])cc1)C(Cl)Cl; settings: 500 μM acetyl-CoA (not saturating), 50 mM HEPES pH 7.5, 150 mM NaCl, 0.1 mM EDTA, 25 °C
[3] = test system: C[C@H]1O[C@H](O[C@H]2[C@H](O)[C@@H](O)[C@@H](O)[C@H](O)[C@@H]2O)[C@@H](N)C[C@@H]1NC(=N)C(=O)O; settings: 125 μM acetyl-CoA, 50 mM HEPES pH 7.5, 150 mM NaCl, 0.1 mM EDTA, 25 °C

Row | Substance | Km ([1]; 400 μM chloramphenicol) | kcat ([1]; 400 μM chloramphenicol) | Km [2] | Km ([1]; 250 μM kasugamycin) | kcat ([1]; 250 μM kasugamycin) | Km [3] | kcat [3]
1 | CatU (Paenibacillus sp. LC231) | 400 ± 20 µM | 94 ± 2 s⁻¹ | 50 ± 3 µM |  |  |  | 
2 | AAC(2′)-IIb (Paenibacillus sp. LC231) |  |  |  | 13 ± 1 µM | 2.9 ± 0.1 s⁻¹ | 44 ± 2 µM | 2.95 ± 0.03 s⁻¹
